# Data taken from PubChem BioAssay AID677 (Vanderbilt High Throughput Screening Facility, 2007).
# Sequences of proteins named here, by UniProt entry; tags and fusion partners are left off. A change or cut given only in a name is not applied to a line headed by its entry.
# UniProt P08482: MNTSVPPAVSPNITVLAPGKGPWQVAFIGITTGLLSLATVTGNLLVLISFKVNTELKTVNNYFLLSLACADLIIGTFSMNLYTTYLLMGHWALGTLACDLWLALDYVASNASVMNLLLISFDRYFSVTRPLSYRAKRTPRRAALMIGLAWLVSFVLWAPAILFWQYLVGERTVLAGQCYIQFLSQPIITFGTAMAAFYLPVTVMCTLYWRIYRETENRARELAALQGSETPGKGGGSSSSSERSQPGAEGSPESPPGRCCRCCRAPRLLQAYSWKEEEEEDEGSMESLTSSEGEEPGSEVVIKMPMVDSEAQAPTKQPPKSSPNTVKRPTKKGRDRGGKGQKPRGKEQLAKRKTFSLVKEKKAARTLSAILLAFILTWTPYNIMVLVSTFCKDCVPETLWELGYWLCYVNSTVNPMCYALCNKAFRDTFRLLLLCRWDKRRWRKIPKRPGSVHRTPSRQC
# The list shows a part of the results, in another mix than the full data. Active and inactive are the calls of the source.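 How the source made its calls: active means calcium response below the same-plate mean of wells given acetylcholine alone at its 80%-effect dose, minus 3 SD; inactive means the rest.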
# Biological target: Muscarinic acetylcholine receptor M1 (Rattus norvegicus) (UniProt P08482)
# Test: rat M1 muscarinic receptor antagonists, confirmation, CHO cells, Fluo-4 calcium, duplicate (AID 677);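 further: raw fluorescence intensity difference in arbitrary instrument units and not normalized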
# Conditions: ACh EC80 antagonism, at 10 µM, hits give low values
row,Structure (SMILES),calcium response (max-min fluorescence)
1,C[N+]1(C)[C@@H]2CC(OC(=O)[C@H](CO)c3ccccc3)C[C@H]1[C@@H]1O[C@@H]12 (stereo partly specified),active: 15.8
